Chains of the proteins cited; added tags and fusions are not shown.
UniProt P34913, whole entry: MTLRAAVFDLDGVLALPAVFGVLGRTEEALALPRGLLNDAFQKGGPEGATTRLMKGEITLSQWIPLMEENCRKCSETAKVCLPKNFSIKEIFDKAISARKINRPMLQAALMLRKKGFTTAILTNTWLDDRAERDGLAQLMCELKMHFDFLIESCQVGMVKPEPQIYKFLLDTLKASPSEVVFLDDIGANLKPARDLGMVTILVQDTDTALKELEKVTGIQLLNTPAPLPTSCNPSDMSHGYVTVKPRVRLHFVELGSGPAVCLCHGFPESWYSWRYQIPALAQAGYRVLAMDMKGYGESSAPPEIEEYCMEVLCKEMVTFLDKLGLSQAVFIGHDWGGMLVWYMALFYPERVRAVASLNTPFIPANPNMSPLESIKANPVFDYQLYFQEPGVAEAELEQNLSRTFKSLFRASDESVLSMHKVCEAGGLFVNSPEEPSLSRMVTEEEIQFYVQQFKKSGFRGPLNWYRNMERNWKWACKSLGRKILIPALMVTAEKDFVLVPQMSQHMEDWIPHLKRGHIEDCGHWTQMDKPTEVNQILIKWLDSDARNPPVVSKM

In patent US20150065717A1, “NIPECOTIC ACID DERIVATIVE AND USE THEREOF FOR MEDICAL PURPOSES” (Toray Industries, Inc., priority 2012, published 2015):

Target: recombinant human sEH (Homo sapiens, UniProt P34913)
Test: In vitro evaluation test for sEH inhibitory activity
Details: recombinant human sEH 0.026 μg/mL, fluorescent substrate 6.25 μmol/L, room temperature
Description: According to the method described in a known document (Analytical Biochemistry, 2005, vol. 343, p. 66-75), the sEH inhibitory activity of each nipecotic acid derivative (I) or a pharmaceutically acceptable salt thereof was evaluated using human sEH.
A recombinant human sEH (final concentration, 0.026 μg/mL; Cayman) was incubated with each test compound in 25 mM Bis-Tris-HCl buffer (pH 7.0) supplemented with 0.1 mg/mL BSA at room temperature for 30 minutes. Thereafter, cyano(6-methoxynaphthalen-2-yl)methyl 2-(3-phenyloxiran-2-yl)acetate (final concentration, 6.25 μmol/L; Cayman) was added thereto as a fluorescent substrate, and the resulting mixture was incubated at room temperature for 20 minutes. The reaction was then stopped by addition of ZnSO4 (final concentration, 0.2 mol/L), and the fluorescence intensity was measured (Fusion α (Packard); Excitation: 330 nm, Emission:485 nm).
The fluorescence intensity observed with addition of neither sEH nor a test compound was regarded as the sEH enzymatic reaction rate of 0%, and the fluorescence intensity observed with addition of sEH but without addition of a test compound was regarded as the sEH enzymatic reaction rate of 100%. From the obtained fluorescence intensity, the sEH enzymatic reaction rate of each test compound was calculated to determine IC50.

CC(C)(C(=O)N1CCC[C@@H](C(=O)NCc2ccc(C#N)cc2OC(F)(F)F)C1)n1cccn1 was tested, and the IC50 was 2.9 nM.
